Laboratory results as given in publication PMC3717276, “Optimization and validation of mitochondria-based functional assay as a useful tool to identify BH3-like molecules selectively targeting anti-apoptotic Bcl-2 proteins” (BMC Biotechnology, 2013).

Target: Human Bcl-2 protein (isoform 2 construct), N-terminal 6xHis tagged recombinant protein (human)
Assay: fluorescence polarisation; competition: Mcl-1 (20 nM) or Bcl-2 (40 nM) pre-incubated with FAM-Bid (2 nM and 2.5 nM), tested BH3 peptide added, 2-3 h; 100 mM potassium phosphate, pH 7.5, 100 ug/ml bovine gamma globulin, 0.02% sodium azide; Ki calculated from IC50

Bim BH3 peptide, 26-mer (residues 81-106)
Ki: < 1 nM
